# Results as given in PubChem BioAssay AID504634 (The Scripps Research Institute Molecular Screening Center, 2011).
# The chains behind the UniProt entries cited, without tags or fusion partners.
# UniProt P47898, whole entry: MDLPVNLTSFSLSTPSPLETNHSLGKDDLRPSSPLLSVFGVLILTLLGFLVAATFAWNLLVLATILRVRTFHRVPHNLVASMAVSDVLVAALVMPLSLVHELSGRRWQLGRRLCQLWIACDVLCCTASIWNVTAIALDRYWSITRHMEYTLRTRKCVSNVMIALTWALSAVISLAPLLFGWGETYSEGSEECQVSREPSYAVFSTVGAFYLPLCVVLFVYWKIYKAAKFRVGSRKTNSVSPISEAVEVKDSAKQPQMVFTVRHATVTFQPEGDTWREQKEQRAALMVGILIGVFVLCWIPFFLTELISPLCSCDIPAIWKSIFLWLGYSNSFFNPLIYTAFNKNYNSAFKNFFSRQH
# This is a selection; strong and weak results do not stand in their true shares. Some tests of the compounds listed are not included; inactive here does not mean inactive elsewhere. The source made the active and inactive calls. Rule as the data show it: active = inhibition mostly above about 23% (no sharp cut-off); inactive = mostly below about 18%.
# Molecular target: 5-hydroxytryptamine receptor 5A (Homo sapiens) (UniProt P47898)
# Assay: HTR5A inverse agonists in luminescence cell assay, primary screen, counter-screen for OPRM1-OPRD1 heterodimer inverse agonist project, full-deck HTS (AID 504634);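 also: 0% = cells with DMSO and 100% = no-cell wells with DMSO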
# Conditions: HTR5A cell line, inverse agonism, at 9.3 µM, active compounds read high
row,SMILES,inhibition
1,Cc1ccc(C(=O)NCC2(N3CCCCC3)CCCCC2)cc1,inactive: -9.46%
2,CC(C)N1C(=O)CC2(CCN(CCOC(=O)C(O)(c3ccccc3)c3ccccc3)CC2)C1=O,inactive: 0.97%
3,COc1cc(SC)ccc1C(=O)NCC1(N(C)C)CCCCC1,inactive: 14.3%
4,CCN(CC)CC(C)C(C)OC(=O)C(O)(c1ccccc1)c1ccccc1 (stereo not given),inactive: -5.94%
5,CN1[C@@H]2CC[C@H]1CC(OC(=O)C(O)(c1ccccc1)c1ccccc1)C2 (stereo not given in full),inactive: 5.71%
6,O=C(NCC1(N2CCCCC2)CCCCC1)c1cc([N+](=O)[O-])ccc1Cl,inactive: -1.91%
7,O=C(NCC1(N2CCCCC2)CCCCC1)c1cccc(Br)c1,inactive: -13.7%
8,CCN1CCCC(OC(=O)C2(O)c3ccccc3C=Cc3ccccc32)C1 (stereo not given),inactive: -37.7%
9,Cc1cc(C(=O)NCC2(N3CCCCC3)CCCCC2)ccc1[N+](=O)[O-],inactive: 10.2%
10,COc1ccc(C(=O)NCC2(N(C)C)CCCCC2)cc1,inactive: 18.7%
11,O=C(NCC1(N2CCCCC2)CCCCC1)c1cc(F)c(F)cc1Cl,inactive: -2.08%
12,C=CCN1CCN(CCOC(=O)C(O)(c2ccccc2)c2ccccc2)CC1,inactive: -7.17%
13,CN(C)c1ccc(C(=O)NCC2(N(C)C)CCCCC2)cc1,inactive: 15.8%
14,CN(C)C1CCCC1OC(=O)C(O)(c1ccccc1)c1ccccc1 (stereo not given),inactive: -2.87%
15,Cc1ccccc1C(=O)NCC1(N2CCCCC2)CCCCC1,inactive: 21.7%
16,O=C(NCC1(N2CCCCC2)CCCCC1)c1cccc(Cl)c1,inactive: -3.41%
17,COc1ccc(Cl)cc1C(=O)NCC1(N(C)C)CCCCC1,inactive: -23.9%
18,COc1cccc(C(=O)NCC2(N3CCCCC3)CCCCC2)c1,inactive: 1.8%
19,COc1cc(C(=O)NCC2(N(C)C)CCCCC2)c([N+](=O)[O-])cc1OC,inactive: 4.27%
20,CN(C)C1(CNC(=O)c2ccc(Br)cc2)CCCCC1,inactive: 2.53%
21,CN(C)c1cccc(C(=O)NCC2(N(C)C)CCCCC2)c1,inactive: 6.5%
22,O=C(OCCN1CCCC1)C(O)(c1ccccc1)c1ccccc1,inactive: -5.16%
23,CC(C)Oc1ccc(C(=O)NCC2(N(C)C)CCCCC2)cc1,inactive: -0.35%
24,COc1ccc(Br)c(C(=O)NCC2(N3CCCCC3)CCCCC2)c1,inactive: 4.02%
25,O=C(OC1CN2CCC1CC2)C(CO)(c1ccccc1)c1ccccc1 (stereo not given),inactive: 12.1%
